According to PubChem BioAssay AID1529 (NMMLSC, 2009):
This is a selection; strong and weak results do not stand in their true shares. The source made the active and inactive calls.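 The calls were made as follows: active = binding response more than 3 SD above or below the average of its plate-row segment, actives on both sides; inconclusive = wells at one plate position flagged as instrument error; inactive = the rest.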

The chains behind the UniProt entries cited, without tags or fusion partners. Where a name states a change or a piece, a line headed by the entry shows the natural chain unless it says otherwise.
UniProt Q99759: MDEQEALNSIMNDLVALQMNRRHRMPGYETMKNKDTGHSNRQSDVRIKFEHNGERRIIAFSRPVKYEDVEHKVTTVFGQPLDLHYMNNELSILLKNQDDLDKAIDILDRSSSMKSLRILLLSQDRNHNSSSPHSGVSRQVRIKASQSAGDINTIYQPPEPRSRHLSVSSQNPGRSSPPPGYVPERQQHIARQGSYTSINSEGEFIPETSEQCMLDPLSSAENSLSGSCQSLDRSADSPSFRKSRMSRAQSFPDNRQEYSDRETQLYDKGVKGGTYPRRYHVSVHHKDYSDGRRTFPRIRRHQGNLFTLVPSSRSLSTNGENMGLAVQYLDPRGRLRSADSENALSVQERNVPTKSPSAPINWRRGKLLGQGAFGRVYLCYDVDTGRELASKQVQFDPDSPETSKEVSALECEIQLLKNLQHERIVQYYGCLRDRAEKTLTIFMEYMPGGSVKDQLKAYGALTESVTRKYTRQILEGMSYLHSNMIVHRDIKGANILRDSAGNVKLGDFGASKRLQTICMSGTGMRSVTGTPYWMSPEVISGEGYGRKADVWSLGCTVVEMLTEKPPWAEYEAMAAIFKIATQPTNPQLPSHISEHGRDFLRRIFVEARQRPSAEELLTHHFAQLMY

biological target: Mitogen-activated protein kinase kinase kinase 3 (Homo sapiens) (UniProt Q99759); experiment: modulators of MEKK3-MEK5 PB1 binding, primary screen, biochemical, wildtype MEKK3, multiplex bead flow cytometry, Alexa488-MEK5 (AID 1529); settings: bead-based flow cytometry, Alexa488-MEK5 binding to MEKK3; at 10 µM; actives lie on both sides; 0 = blocked by unlabeled MEK5, 100 = vehicle;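 also: Alexa488 bead fluorescence after subtracting the streptavidin-only scavenger bead signal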

**Q.** `CC(C)/C=N\N=C(\N)N[N+](=O)[O-]` was tested. Which binding response (% of control) did it give?
**A.** inactive: 95%

**Q.** With `CN(C(=O)Cc1ccc(Cl)c(Cl)c1)[C@@H]1CCCC[C@H]1N1CCCC1` as the molecule, how does the binding response (% of control) read?
**A.** inactive: 87%

**Q.** How did the binding response (% of control) turn out when `Clc1n[nH]nc1-c1nn[nH][15n]1` was run?
**A.** inactive: 100%

**Q.** `CC(C)(C)C(=O)NC(Sc1ncccn1)C(Cl)(Cl)Cl` (stereo unspecified) was tested. Which binding response (% of control) did it give?
**A.** inactive: 94%

**Q.** With `CCOP(=O)(Nc1ccc(C)cn1)OCC` as the molecule, how does the binding response (% of control) read?
**A.** inactive: 106%

**Q.** Which binding response (% of control) does the source give for `CN(CCCl)Cc1cc(Cl)c(NC2=NCCN2)c(Cl)c1` here?
**A.** inactive: 111%

**Q.** `O=P1(Nc2ccccn2)COc2ccccc2OC1` was tested. Which binding response (% of control) did it give?
**A.** inactive: 103%

**Q.** `CCC1=CC2Cc3nc4ccc(Cl)cc4c(N)c3C(C1)C2` (stereo unspecified) was tested. Which binding response (% of control) did it give?
**A.** inactive: 118%

**Q.** `CCOP(=O)(NC(=NC(C)c1ccccc1)NC(C)c1ccccc1)OCC` (stereo unspecified) was tested. Which binding response (% of control) did it give?
**A.** inactive: 104%

**Q.** `CCC(C)N(CC(C)C)C(=S)SC(NC(C)=O)C(Cl)(Cl)Cl` (stereo unspecified) was tested. Which binding response (% of control) did it give?
**A.** inactive: 107%

**Q.** How did the binding response (% of control) turn out when `CCOC(=O)c1ccc(NC(=O)C(C)(CCl)SC)cc1` (stereo unspecified) was run?
**A.** inactive: 99%

**Q.** How did the binding response (% of control) turn out when `O=C(OC1CN2CCC1CC2)c1cccc([N+](=O)[O-])c1` (stereo unspecified) was run?
**A.** inactive: 104%

**Q.** With `O=C(Nc1ccncc1[N+](=O)[O-])c1ccc([N+](=O)[O-])cc1[N+](=O)[O-]` as the molecule, how does the binding response (% of control) read?
**A.** inactive: 105%

**Q.** For `COP1(=S)c2c(C)nn(CCC#N)c2N=C(c2ccc(F)cc2)N1C` (stereo unspecified), which binding response (% of control) is on record?
**A.** inactive: 102%

**Q.** For `O=[N+]([O-])c1ccc(Nc2ccc(Oc3ccc([N+](=O)[O-])cc3[N+](=O)[O-])cc2)c([N+](=O)[O-])c1`, which binding response (% of control) is on record?
**A.** inactive: 101%

**Q.** For `O=P(Nc1ccccn1)(c1cccc2ccccc12)c1cccc2ccccc12`, which binding response (% of control) is on record?
**A.** inactive: 101%

**Q.** How did the binding response (% of control) turn out when `Cc1cc(SC(NC=O)C(Cl)(Cl)Cl)ncn1` (stereo unspecified) was run?
**A.** inactive: 102%

**Q.** With `CCOC(=O)Nc1cccc([As](=O)(O)O)c1` as the molecule, how does the binding response (% of control) read?
**A.** inactive: 109%

**Q.** How did the binding response (% of control) turn out when `CCCCOc1ccc(C(=O)NCC2(N3CCCCC3)CCCCC2)cc1OC` was run?
**A.** inactive: 102%

**Q.** `Cc1cc(SC(NC(=O)c2ccccc2)C(Cl)(Cl)Cl)nc(C(C)C)n1` (stereo unspecified) was tested. Which binding response (% of control) did it give?
**A.** inactive: 107%

**Q.** With `CCOC(=O)Nc1ccc([As](=O)(O)O)c(O)c1` as the molecule, how does the binding response (% of control) read?
**A.** inactive: 103%

**Q.** Which binding response (% of control) does the source give for `CC(C)NC(=O)NP(=O)(Oc1ccccc1)Oc1ccccc1` here?
**A.** inactive: 105%

**Q.** For `CCN(CC)C(=S)SC(NC=O)C(Cl)(Cl)Cl` (stereo unspecified), which binding response (% of control) is on record?
**A.** inactive: 106%

**Q.** For `O=[N+]([O-])c1cc([N+](=O)[O-])c(-c2ccn[nH]2)s1`, which binding response (% of control) is on record?
**A.** inactive: 97%

**Q.** Which binding response (% of control) does the source give for `CC(C)c1ccc(OP(=O)(Nc2ccccn2)Oc2ccccc2F)cc1` (stereo unspecified) here?
**A.** inactive: 100%

**Q.** Which binding response (% of control) does the source give for `ClCCSc1nnc(-c2cccnc2)o1` here?
**A.** inactive: 102%

**Q.** With `Cc1ccc2nc3c(c(C)c2c1)CC(C(Cl)Cl)S3` (stereo unspecified) as the molecule, how does the binding response (% of control) read?
**A.** inactive: 123%

**Q.** How did the binding response (% of control) turn out when `Cc1ccc(OP(=O)(Nc2ccc([N+](=O)[O-])cn2)Oc2ccc(C)cc2)cc1` was run?
**A.** inactive: 91%

**Q.** How did the binding response (% of control) turn out when `O=[As](O)(c1ccc(O)cc1)c1ccccc1O` was run?
**A.** inactive: 108%

**Q.** How did the binding response (% of control) turn out when `C[As](=O)(O)c1cccc(C(=O)O)c1` was run?
**A.** inactive: 60%

**Q.** For `COc1ccc(N/C(=N/P(=O)(N2CCOCC2)N2CCOCC2)N2CCOCC2)cc1`, which binding response (% of control) is on record?
**A.** inactive: 110%

**Q.** With `COc1ccc2nc(NP(=O)(c3ccccc3)c3ccccc3)sc2c1` as the molecule, how does the binding response (% of control) read?
**A.** inactive: 113%

**Q.** `COc1cc(I)ccc1[As](=O)(O)O` was tested. Which binding response (% of control) did it give?
**A.** inactive: 101%

**Q.** Which binding response (% of control) does the source give for `O=C(OC1CN2CCC1CC2)C12CC3CC(CC(C3)C1)C2` (stereo unspecified) here?
**A.** inactive: 95%

**Q.** For `Cc1cc(=O)[nH]c(N[N+](=O)[O-])n1`, which binding response (% of control) is on record?
**A.** inactive: 93%

**Q.** With `Cc1c2c(nc3ccccc13)SC(C(Cl)Cl)C2` (stereo unspecified) as the molecule, how does the binding response (% of control) read?
**A.** inactive: 106%
